Assay results reported in patent US10844067B2, “Heterocyclic compounds as RET kinase inhibitors” (Cancer Research Technology Limited, priority 2016, dated 2020).
Structures can show the parent of a compound that is named as a salt.

These compounds were tested on Non-modified BaF3 cells (WT) (assay: BaF3 cell assay, non-modified (WT) cells with IL3). Details: Mus musculus, BaF3, 48 h, read-out: BaF3 IC50, Non-modified BaF3 cells (WT) with IL3, 48 hours, CellTiter-Glo.
Compound `Cn1nc(-c2cc3cccnc3[nH]2)c2c(N)ncnc21` [Example 31, 1-Methyl-3-{1H-pyrrolo[2,3-b]pyridin-2-yl}-1H-pyrazolo[3,4-d]pyrimidin-4-amine] has an IC50 of over 10 µM. For `Nc1ncnc2c1c(-c1[nH]c3ncccc3c1Cl)nn2C1CCC(O)C1` (centres unmarked) [Example 69, 3-[4-Amino-3-(3-chloro-1H-pyrrolo[2,3-b]pyridin-2-yl)pyrazolo[3,4-d]pyrimidin-1-yl]cyclopentanol], the IC50 was 3.16 µM. Work on `N#Cc1ccc(Cn2nc(-c3[nH]c4ncccc4c3Cl)c3c(N)ncnc32)cc1` [Example 57, 4-((4-Amino-3-(3-chloro-1H-pyrrolo[2,3-b]pyridin-2-yl)-1H-pyrazolo[3,4-d]pyrimidin-1-yl)methyl)benzonitrile] yielded an IC50 of over 10 µM. `Nc1ncnc2c1c(-c1[nH]c3ncccc3c1Cl)nn2C1CNC1` [Example 58, 1-(Azetidin-3-yl)-3-(3-chloro-1H-pyrrolo[2,3-b]pyridin-2-yl)-1H-pyrazolo[3,4-d]pyrimidin-4-amine] showed an IC50 of over 10 µM. For `CCn1nc(-c2cc3cccnc3[nH]2)c2c(N)ncnc21` [Example 43, 1-Ethyl-3-(1H-pyrrolo[2,3-b]pyridin-2-yl)pyrazolo[3,4-d]pyrimidin-4-amine], the IC50 was 9.5 µM. In the case of `Cc1ccc2[nH]c(-c3nn(C(C)(C)C)c4ncnc(N)c34)cc2c1` [Example 84, 1-tert-Butyl-3-(5-methyl-1H-indol-2-yl)pyrazolo[3,4-d]pyrimidin-4-amine], the IC50 is reported as 6.13 µM. In the case of `CC(C)(C)n1nc(-c2[nH]c3ncccc3c2Cl)c2c(N)ncnc21` [Example 10, 1-tert-Butyl-3-{3-chloro-1H-pyrrolo[2,3-b]pyridin-2-yl}-1H-pyrazolo[3,4-d]pyrimidin-4-amine], the IC50 is reported as over 10 µM. `CC(C)(C)n1nc(-c2[nH]c3cc(C#N)ccc3c2Cl)c2c(N)ncnc21` [Example 18, 2-(4-Amino-1-(tert-butyl)-1H-pyrazolo[3,4-d]pyrimidin-3-yl)-3-chloro-1H-indole-6-carbonitrile] showed an IC50 of over 10 µM. Work on `Cc1ccc2cc(-c3nn(C(C)(C)C)c4ncnc(N)c34)[nH]c2c1` [Example 70, 1-tert-Butyl-3-(6-methyl-1H-indol-2-yl)pyrazolo[3,4-d]pyrimidin-4-amine] yielded an IC50 of over 10 µM. For `CC(C)c1cc(-c2cc3ccccc3[nH]2)c2c(N)ncnn12` [Example 13, 5-(1H-Indol-2-yl)-7-(propan-2-yl)pyrrolo[2,1-f][1,2,4]triazin-4-amine], the IC50 was 5.07 µM. `Nc1ncnc2c1c(-c1[nH]c3ncccc3c1Cl)nn2[C@H]1CC[C@@H](N)CC1` [Example 38, 1-(cis-4-Aminocyclohexyl)-3-(3-chloro-1H-pyrrolo[2,3-b]pyridin-2-yl)-1H-pyrazolo[3,4-d]pyrimidin-4-amine dihydrochloride] was tested, and the IC50 was 1.3 µM. `CC(C)n1cc(-c2[nH]c3ncccc3c2Cl)c2c(N)ncnc21` [Example 45, 5-(3-Chloro-1H-pyrrolo[2,3-b]pyridin-2-yl)-7-isopropyl-pyrrolo[2,3-d]pyrimidin-4-amine] gave an IC50 of 2.24 µM. Compound `CC(C)(C)n1nc(-c2[nH]c3ccccc3c2Cl)c2c(N)ncnc21` [Example 3, 1-tert-Butyl-3-(3-chloro-1H-indol-2-yl)pyrazolo[3,4-d]pyrimidin-4-amine] has an IC50 of 7.2 µM. Compound `CC(C)c1cc(-c2[nH]c3ccccc3c2Cl)c2c(N)ncnn12` [Example 14, 5-(3-Chloro-1H-indol-2-yl)-7-(propan-2-yl)pyrrolo[2,1-f][1,2,4]triazin-4-amine] has an IC50 of over 10 µM. Work on `CC(C)(C)n1nc(-c2[nH]c3cccc(Cl)c3c2Cl)c2c(N)ncnc21` [Example 53, 1-tert-Butyl-3-(3,4-dichloro-1H-indol-2-yl)pyrazolo[3,4-d]pyrimidin-4-amine] yielded an IC50 of over 10 µM. `CC(C)n1cc(-c2[nH]c3ccccc3c2Cl)c2c(N)ncnc21` [Example 48, 5-(3-Chloro-1H-indol-2-yl)-7-isopropyl-pyrrolo[2,3-d]pyrimidin-4-amine] was tested, and the IC50 was over 10 µM. `CC(C)(C)n1nc(-c2cc3cccnc3[nH]2)c2c(N)ncnc21` [Example 9, 1-tert-Butyl-3-{1H-pyrrolo[2,3-b]pyridin-2-yl}-1H-pyrazolo[3,4-d]pyrimidin-4-amine] was tested, and the IC50 was 3.8 µM. `Nc1ncnc2c1c(-c1[nH]c3ccccc3c1Cl)nn2C1CCCCC1` [Example 63, 3-(3-Chloro-1H-indol-2-yl)-1-cyclohexyl-pyrazolo[3,4-d]pyrimidin-4-amine] was tested, and the IC50 was over 10 µM. With `CC(C)n1nc(-c2cc3cccnc3[nH]2)c2c(N)nccc21` [Example 32, 1-Isopropyl-3-(1H-pyrrolo[2,3-b]pyridin-2-yl)-1H-pyrazolo[4,3-c]pyridin-4-amine] the IC50 was 8.57 µM. Work on `Nc1ncnc2c1c(-c1[nH]c3ncccc3c1Cl)nn2CC1CCOCC1` [Example 59, 3-(3-Chloro-1H-pyrrolo[2,3-b]pyridin-2-yl)-1-((tetrahydro-2H-pyran-4-yl)methyl)-1H-pyrazolo[3,4-d]pyrimidin-4-amine] yielded an IC50 of over 10 µM. For `Nc1ncnc2c1c(-c1[nH]c3ccccc3c1Cl)nn2C1CCOC1` (centres unmarked) [Example 86, 3-(3-Chloro-1H-indol-2-yl)-1-(tetrahydrofuran-3-yl)-1H-pyrazolo[3,4-d]pyrimidin-4-amine], the IC50 was over 10 µM. Work on `CC(C)(O)c1ccc2c(Cl)c(-c3nn(C(C)(C)C)c4ncnc(N)c34)[nH]c2c1` [Example 52, 2-(2-(4-Amino-1-(tert-butyl)-1H-pyrazolo[3,4-d]pyrimidin-3-yl)-3-chloro-1H-indol-6-yl)propan-2-ol] yielded an IC50 of over 10 µM. Work on `Nc1ncnc2c1c(-c1cc3cccnc3[nH]1)nn2C1CCCCC1` [Example 41, 1-Cyclohexyl-3-(1H-pyrrolo[2,3-b]pyridin-2-yl)pyrazolo[3,4-d]pyrimidin-4-amine] yielded an IC50 of over 10 µM. Work on `COCc1ccc2c(Cl)c(-c3nn(C(C)(C)C)c4ncnc(N)c34)[nH]c2c1` [Example 26, 1-tert-Butyl-3-[3-chloro-6-(methoxymethyl)-1H-indol-2-yl]-1H-pyrazolo[3,4-d]pyrimidin-4-amine] yielded an IC50 of over 10 µM. For `CC(C)(C)n1nc(-c2[nH]c3cc(CN)ccc3c2Cl)c2c(N)ncnc21` [Example 35, 3-(6-(Aminomethyl)-3-chloro-1H-indol-2-yl)-1-(tert-butyl)-1H-pyrazolo[3,4-d]pyrimidin-4-amine], the IC50 was over 10 µM. `CS(=O)(=O)N1CCC(n2nc(-c3cc4ccccc4[nH]3)c3c(N)ncnc32)CC1` [Example 2, 3-(1H-Indol-2-yl)-1-(1-methylsulfonyl-4-piperidyl)pyrazolo[3,4-d]pyrimidin-4-amine] gave an IC50 of 0.85 µM. Work on `Nc1ncnc2c1c(-c1[nH]c3ncccc3c1Cl)nn2C1CCOC1` (centres unmarked) [Example 78, 3-(3-Chloro-1H-pyrrolo[2,3-b]pyridin-2-yl)-1-(tetrahydrofuran-3-yl)-1H-pyrazolo[3,4-d]pyrimidin-4-amine] yielded an IC50 of over 10 µM. With `CC(C)(C)n1nc(-c2cc3cc(Cl)cnc3[nH]2)c2c(N)ncnc21` [Example 50, 1-(tert-Butyl)-3-(5-chloro-1H-pyrrolo[2,3-b]pyridin-2-yl)-1H-pyrazolo[3,4-d]pyrimidin-4-amine] the IC50 was over 10 µM. `CC(C)CCn1nc(-c2[nH]c3ncccc3c2Cl)c2c(N)ncnc21` [Example 80, 3-(3-Chloro-1H-pyrrolo[2,3-b]pyridin-2-yl)-1-isopentyl-1H-pyrazolo[3,4-d]pyrimidin-4-amine] showed an IC50 of 8.5 µM. In the case of `CC(C)(C)n1nc(-c2cc3cc(F)ccc3[nH]2)c2c(N)ncnc21` [Example 74, 1-tert-Butyl-3-(5-fluoro-1H-indol-2-yl)pyrazolo[3,4-d]pyrimidin-4-amine], the IC50 is reported as 5 µM. Compound `CC(C)n1nc(-c2cc3ccc(Br)cc3[nH]2)c2c(N)ncnc21` [Example 15, 3-(6-Bromo-1H-indol-2-yl)-1-isopropyl-pyrazolo[3,4-d]pyrimidin-4-amine] has an IC50 of over 10 µM. For `Nc1ncnc2c1c(-c1cc3cccnc3[nH]1)nn2C1CCC1` [Example 42, 1-Cyclobutyl-3-(1H-pyrrolo[2,3-b]pyridin-2-yl)pyrazolo[3,4-d]pyrimidin-4-amine], the IC50 was 4.79 µM. `CC(C)(C)n1nc(-c2[nH]c3cc(Cl)ccc3c2Cl)c2c(N)ncnc21` [Example 24, 1-tert-Butyl-3-(3,6-dichloro-1H-indol-2-yl)-1H-pyrazolo[3,4-d]pyrimidin-4-amine] gave an IC50 of over 10 µM. Compound `Nc1ncnc2c1c(-c1[nH]c3ccccc3c1Cl)nn2[C@H]1CC[C@H](N2CCOCC2)CC1` [Example 7, 3-(3-Chloro-1H-indol-2-yl)-1-(trans-4-morpholinocyclohexyl)-1H-pyrazolo[3,4-d]pyrimidin-4-amine] has an IC50 of 6.04 µM. For `CC(C)n1nc(-c2cc3cccnc3[nH]2)c2c(N)ncc(Cl)c21` [Example 73, 7-Chloro-1-isopropyl-3-(1H-pyrrolo[2,3-b]pyridin-2-yl)-1H-pyrazolo[4,3-c]pyridin-4-amine], the IC50 was over 10 µM. Compound `Nc1ncnc2c1c(-c1[nH]c3ncccc3c1Cl)nn2CCN1CCCCC1` [Example 87, 3-(3-Chloro-1H-pyrrolo[2,3-b]pyridin-2-yl)-1-(2-(piperidin-1-yl)ethyl)-1H-pyrazolo[3,4-d]pyrimidin-4-amine] has an IC50 of over 10 µM. `Nc1ncnc2c1c(-c1[nH]c3ncccc3c1Cl)nn2[C@H]1CC[C@H](NC(=O)C2CC2)CC1` [Example 68, N-[trans-4-[4-Amino-3-(3-chloro-1H-pyrrolo[2,3-b]pyridin-2-yl)pyrazolo[3,4-d]pyrimidin-1-yl]cyclohexyl]cyclopropanecarboxamide] gave an IC50 of over 10 µM. With `CC(C)n1cc(-c2cc3cccnc3[nH]2)c2c(N)ncnc21` [Example 21, 7-Isopropyl-5-(1H-pyrrolo[2,3-b]pyridin-2-yl)pyrrolo[2,3-d]pyrimidin-4-amine] the IC50 was 2.51 µM. For `CC(C)(C)n1nc(-c2cc3cc(C#N)ccc3[nH]2)c2c(N)ncnc21` [Example 54, 2-(4-Amino-1-tert-butyl-pyrazolo[3,4-d]pyrimidin-3-yl)-1H-indole-5-carbonitrile], the IC50 was over 10 µM. Compound `CS(=O)(=O)N1CCC(n2nc(-c3cc4cccnc4[nH]3)c3c(N)ncnc32)CC1` [Example 22, 1-(1-Methanesulfonylpiperidin-4-yl)-3-{1H-pyrrolo[2,3-b]pyridin-2-yl}-1H-pyrazolo[3,4-d]pyrimidin-4-amine] has an IC50 of over 10 µM. In the case of `CC(C)(C)n1nc(-c2[nH]c3ccccc3c2F)c2c(N)ncnc21` [Example 76, 1-(tert-Butyl)-3-(3-fluoro-1H-indol-2-yl)-1H-pyrazolo[3,4-d]pyrimidin-4-amine], the IC50 is reported as 5.48 µM.
